Test results taken from patent publication US20140030260A1, “METHODS AND COMPOSITIONS TO ELIMINATE CHRONIC LYMPHOCYTIC LEUKEMIA AND OTHER HEMATOLOGIC MALIGNANT CELLS IN STROMAL MICROENVIRONMENT FOR CANCER THERAPY” (BOARD OF REGENTS, THE UNIVERSITY OF TEXAS SYSTEM, priority 2010, published 2014).

Tested on: primary leukemia cells (CLL)
Experiment: Viability of primary CLL cells cultured alone or with stromal cells, flow cytometry after annexin-V/PI double-staining
Conditions: patient #10; different types of stromal cells; 50 μM selecticine, 20 μM F-ara-A or 20 μM oxaliplatin, 2 days

oxaliplatin [reference compound]
effect of stromal cells on the drug's cytotoxicity in CLL cells: protected
